Values quoted from earlier work in publication PMC10797613 (ACS Chemical Neuroscience, 2024).

Amino acid sequences for entries named in this document (tags omitted).
UniProt P08908, whole entry: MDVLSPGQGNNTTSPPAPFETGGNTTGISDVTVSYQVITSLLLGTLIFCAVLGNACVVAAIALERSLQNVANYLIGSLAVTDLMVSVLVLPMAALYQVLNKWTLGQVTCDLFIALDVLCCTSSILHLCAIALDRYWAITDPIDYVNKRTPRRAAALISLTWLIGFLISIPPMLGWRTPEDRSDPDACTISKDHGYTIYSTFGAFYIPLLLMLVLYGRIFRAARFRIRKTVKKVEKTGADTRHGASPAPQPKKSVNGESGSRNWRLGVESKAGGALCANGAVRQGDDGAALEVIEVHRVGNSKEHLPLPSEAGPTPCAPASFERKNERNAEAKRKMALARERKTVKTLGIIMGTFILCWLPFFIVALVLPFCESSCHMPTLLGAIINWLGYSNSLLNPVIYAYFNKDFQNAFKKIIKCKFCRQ

Target: 5-HT1A (Homo sapiens, UniProt P08908)
Details: read-out: Ki 5-HT1A; previous report; cited from earlier work

Question: With `CNCCc1c[nH]c2cccc(O)c12` [norpsilocin, 4-hydroxy-N-methyltryptamine] as the compound, how does the Ki read?
Answer: 0.029 to 0.086 µM
